Here are results for one substance from patent US20020177203.

This data set has as its system (Pro-Pro-Gly)10.

Take “human type 1 prolyl 4-hydroxylase tetramer”: the Km was 18 µM.

The term Km denotes the substrate concentration at which the rate is half of its maximum.
